Literature values in patent publication US20230023414A1, “METHODS AND DEVICES FOR TREATING A DISEASE WITH BIOTHERAPEUTICS” (PROGENITY, INC., priority 2018, published 2023).

Conditions: cited from earlier work

dalteparin
stability in commercial off-the-shelf syringes: 30 days
